# AlphaSeq binding of Ab-95 light chain variants to a spike HR2 peptide

Target peptide (SARS-CoV-2 spike, HR2 region): PDVDLGDISGINAS

Parent: Ab-95, a human scFv built as VH, a (GGGGS)3 linker, VL. Only the CDRs of the light chain vary.
VH: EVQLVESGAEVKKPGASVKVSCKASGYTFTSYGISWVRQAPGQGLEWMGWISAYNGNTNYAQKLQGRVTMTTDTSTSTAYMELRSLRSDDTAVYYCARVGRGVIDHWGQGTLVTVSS
VL: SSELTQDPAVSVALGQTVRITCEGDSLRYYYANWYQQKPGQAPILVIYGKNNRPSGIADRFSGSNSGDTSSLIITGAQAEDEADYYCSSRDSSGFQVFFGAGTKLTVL

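The starting antibody came from a phage panning campaign against this peptide. Variants in AAYL52 differ from the parent at up to three CDR positions; double and triple changes were sampled at random. The scFvs were displayed on barcoded MATa yeast, the peptide on MATalpha yeast. The frequency of each diploid, read from paired DNA barcodes, reflects how well the two displayed proteins bind. The ratio of observed to expected reads was calibrated, replicate by replicate, on BCL2-family standards whose Kd was known from biolayer interferometry. There are three technical replicates.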

The parent's light chain CDRs are EGDSLRYYYAN, GKNNRPS, SSRDSSGFQVF; each variant's own CDRs replace them letter for letter. Numbers give log10(Kd / nM), so 0 is 1 nM and 3 is 1 µM. Smaller is tighter. "n.d." marks a missing value. The strain was present, yet no cells mated with the target were sequenced in that replicate, which points to weak or no binding.

CDR-L1,CDR-L2,CDR-L3,log10 Kd (nM) by replicate,empty controls
EGDSLRYYYAY,GKNNRPS,SSRDTSEFQVF,3.44 4.62 n.d.,6 of 9 (3.39)
EGDSLRYYLAS,GENNRPS,SSRDSSGFQVF,3.04 3.18 n.d.,4 of 9 (4.49)
EGDSLRYYYAN,GKNNHPQ,SSRDSSGFGVF,2.76 3.12 4.04,3 of 9 (3.91)
LGDSLRYYGAN,GKNNRPS,SSRDSSGFQVF,2.11 1.89 1.59,2 of 9 (4.56)
EGDFLRHYYAN,GKNNRPS,SSRDSSGQQVF,3.15 3.62 2.23,3 of 9 (3.66)
EGDSLRYYYAN,WKNNRPS,SSRDSSGEQRF,5.20 3.75 n.d.,4 of 9 (3.93)
EGDSLRMYYRN,GKNNRPS,TSRDSSGFQVF,n.d. 2.86 n.d.,5 of 9 (3.99)
EGDSLRYYYAN,IKNNRPS,TFRDSSGFQVF,4.28 n.d. n.d.,2 of 9 (3.48)
EGDSLQYYYAN,GKNNRPS,SSRDSSGYQVC,5.66 4.40 n.d.,4 of 9 (3.76)
KVDSLRHYYAN,GKNNRPS,SSRDSSGFQVF,3.22 2.65 2.37,2 of 9 (4.43)
MGDSLRYYRAL,GKNNRPS,SSRDSSGFQVF,3.50 n.d. n.d.,1 of 9 (4.68)
ECDSLRYYYAN,GINNRPS,SSRDSSGFQVA,2.95 n.d. 2.27,4 of 9 (3.66)
EGDSTRYYYAN,GKNNRPS,RNRDSSGFQVF,n.d. n.d. n.d.,2 of 9 (3.91)
EGDSLRFYNAN,GKNNRPS,SSRDSSGFQVF,1.54 1.49 0.99,5 of 9 (3.90)
EGDSLRYNYAN,GKRNWPS,SSRDSSGFQVF,2.55 3.43 n.d.,2 of 9 (4.54)
EGDSLRYKYMN,CKNNRPS,SSRDSSGFQVF,3.02 3.01 3.46,1 of 9 (4.53)
EGDSLRYYSAN,TRNNRPS,SSRDSSGFQVF,2.88 3.74 2.52,3 of 9 (4.37)
EGDSLRYYYAN,GMNNKPS,SSIDSSGFQVF,n.d. n.d. n.d.,3 of 9 (3.86)
EGPSLRYYYAN,GKNNCPS,SSKDSSGFQVF,3.66 3.04 4.22,3 of 9 (3.42)
LGDSLRYYYLN,GKNNRPR,SSRDSSGFQVF,4.04 n.d. n.d.,1 of 9 (3.69)
EGMSLRYYYAR,GKNNRPS,SSRDSSGFQYF,n.d. n.d. n.d.,4 of 9 (4.04)
EGDSLRYVYAN,GNNNRPS,SSRDSSGFQNF,2.69 2.82 2.41,3 of 9 (3.56)
EGDSLRYYYAH,GKFNKPS,SSRDSSGFQVF,n.d. 3.89 n.d.,5 of 9 (4.12)
EVDSLRPYYAN,NKNNRPS,SSRDSSGFQVF,2.89 n.d. 3.18,4 of 9 (3.52)
EGDSLRYYYTN,GKNNRQS,SSRDSSGFQVF,2.84 2.91 3.65,6 of 9 (4.16)
KGDSLRYYYAN,WKNNRPS,SSRDSSTFQVF,5.06 n.d. 4.04,3 of 9 (3.97)
PGDYLRYYYAN,GKNNRPS,SFRDSSGFQVF,4.85 3.89 4.42,3 of 9 (4.30)
EGDSLRYYYAS,GKRNRPS,SPRDSSGFQVF,5.34 n.d. 4.19,2 of 9 (3.65)
EEDSLRYYYAL,GKNNRPS,SSRDCSGFQVF,4.35 3.22 4.46,2 of 9 (4.27)
EGDSLRGYEAQ,GKNNRPS,SSRDSSGFQVF,2.98 2.57 3.06,4 of 9 (3.78)
EGDSLRYCYAN,GKNNRMS,SSRDSSCFQVF,2.30 2.72 2.03,0 of 9
EGDSLRYYYDN,GFHNRPS,SSRDSSGFQVF,n.d. 3.87 n.d.,1 of 9 (5.20)
EGDSLRYLYAN,GKNNRPS,SSRDSSGFQVF,2.23 2.31 1.73,1 of 9 (4.87)

Nonspecific signal, from three strains lacking the peptide, appeared in 28% of pairings of library AAYL52, centred on 3.91 (5% of these signals below 2.90); values are not corrected for it. For each scFv, signals with the empty controls are counted beside the result, with their mean in brackets. Parent in this assay: reference entry 2.31, copy in this library 2.25.

Reference: Engelhart et al. 2022, doi:10.1038/s41597-022-01779-4. File: FLAb, binding data.